The source of these data is article PMC4942611, “Promising Tools in Prostate Cancer Research: Selective Non-Steroidal Cytochrome P450 17A1 Inhibitors” (Scientific Reports, 2016).

The assay concerns the target T1, CYP21A2 (Homo sapiens, UniProt P08686).
T1 sequence (P08686 1-495): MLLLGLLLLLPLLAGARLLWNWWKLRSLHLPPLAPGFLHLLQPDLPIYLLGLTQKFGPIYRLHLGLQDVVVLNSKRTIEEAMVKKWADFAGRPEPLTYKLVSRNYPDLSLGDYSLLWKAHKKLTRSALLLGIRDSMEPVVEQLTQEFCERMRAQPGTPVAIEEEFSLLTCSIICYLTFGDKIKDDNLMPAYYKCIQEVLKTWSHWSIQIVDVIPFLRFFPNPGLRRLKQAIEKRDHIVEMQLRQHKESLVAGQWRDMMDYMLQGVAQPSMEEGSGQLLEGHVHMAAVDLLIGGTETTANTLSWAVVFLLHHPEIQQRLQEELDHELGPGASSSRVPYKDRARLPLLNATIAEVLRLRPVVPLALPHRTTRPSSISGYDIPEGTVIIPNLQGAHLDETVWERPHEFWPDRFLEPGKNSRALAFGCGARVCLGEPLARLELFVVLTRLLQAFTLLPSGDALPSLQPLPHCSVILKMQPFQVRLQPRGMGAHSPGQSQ
As to the kind of experiment: H295R cell assay, CYP21A2 activity. Type of assay: cell-based. To be noted: H295R cells; read-out: IC50 for inhibition of CYP21A2 activity. The procedure:
This cellular assay was also used to evaluate inhibitor selectivity.
The H295R steroid hormone synthesis assay was performed according to the OECD validation guideline. Cells were cultured in DMEM/F12 media supplemented with 1% ITS-premix and 2.5% Nu-serum at 37 °C with a 5% CO2 atmosphere. The cells were only used for experiments between passage […]. During exposure experiments, cells were grown in 24 well plates with a density of 3 × 10^5 cells/mL. […] To avoid interference from low levels of steroid hormones present in the Nu-serum, the exposure experiment was conducted with serum-free media. Each compound was tested at a minimum of seven concentration levels using three or more replicates and the experiment was repeated on two different days (n = 6–15). On each test plate a solvent control (SC) (medium with 0.1% DMSO) was included in triplicate and the maximal concentration of DMSO in the cell medium was 0.1%[49]. After 48 hours of incubation in presence of the test compounds, 950 μL of the medium was carefully removed and internal standards (50 μl of 0.1 μg/μl solution containing deuterated steroid analogues) were added. Samples were stored at −20 °C for later analysis.

As usually defined, the IC50 is the concentration that gives 50% inhibition. Turning to `C[C@]12CC[C@H](O)CC1=CC[C@@H]1[C@@H]2CC[C@]2(C)C(c3cccnc3)=CC[C@@H]12` [abiraterone, reference compound], the IC50 was 240 nM.
